{"source": "paper PMC7581279", "about": "(2013)", "biological_target": "recombinant HIV-1 IN ST activity (Human immunodeficiency virus type 1 group M subtype B, UniProt P04585)", "assay": "biochemical"}
{"molecule": "CCOC(=O)C(=O)CC(=O)/C=C/c1cccn1Cc1ccc(C)cc1", "note": "[7d, 6-[1-(4-Methylphenyl)methyl-1H-pyrrol-2-yl]-2,4-dioxo-5-hexenoic Acid Ethyl Ester]", "values": [{"measurement": "IC50", "result": "> 111", "unit": "µM"}]}
